# In ChEMBL document CHEMBL1121956, “Potential antitumor agents. 37. Organophosphorus derivatives of 9-anilinoacridine” (1982):
# Key:
# [1] = system: P388; experiment: Percentage increase in life span was measured for P-388 cells in culture after intraperitoneal administration of a dose of 38 mg/kg; conditions: Mus musculus
# [2] = system: Nucleic Acid; experiment: […] association constant for DNA binding to poly (dA.dT); assay type: nucleic-acid assay
# Procedure, shortened: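 Association constant for binding to the synthetic polynucleotide poly(dA-dT). Measured by a method described in earlier work.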
smiles,measurement,setting,value
COP(C)(=O)Nc1ccc(Nc2c3ccccc3nc3ccccc23)cc1 (configuration not stated),ILS,[1],49%
same,Log K,[2],6.34
